Screens from PubChem.
uPA surface inh: blocks generation of uPA at the cell surface; cell surface uPA generation assay, qHTS; Potency, µM (series often up to 38.3 µM), for inactives: top-dose activity change, negative = inhibition, actives largely listed as inhibitors; 330,000 compounds, 0.31% hits; active means well fitted inhibition curve with a large enough effect; inconclusive means small, poorly fitted or top-dose-only effect; inactive means no such curve, though single readings can be large or run the other way; tested in mouse RAW 264.7 cells; further: potency means the concentration at half of the fitted maximal effect; on the % scale 0 is the no-effect control and ±100 the full control effect; nearly all actives have a fitted effect of over 55% in size
TDP1 cell CPT: DT40-hTDP1 cell growth loss with CPT; 420,000 compounds, 12% hits; chicken DT40 Tdp1-/-;hTDP1 cells + 20 nM CPT, ATP luminescence, 48 h; AID 686979; Potency, µM (top dose mostly 46.2 µM), for inactives: at the top dose activity change, negative = growth inhibition, most hits filed as inhibitors; further: potency means the concentration at half of the fitted maximal effect; on the % scale 0 is the no-effect control and ±100 the full control effect; nearly all actives have a fitted effect of over 55% in size
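Chicken DT40 Tdp1-/- cells stably complemented with human TDP1 were seeded at 400 cells/well in medium containing 20 nM camptothecin, exposed to pin-transferred compounds, and grown at 37 °C for at least 48 hr. Viability was read as ATP luminescence.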
TDP1 inh: inhibitors of human tyrosyl-DNA phosphodiesterase TDP1. Potency, µM (highest dose often 130 µM), for inactives: at the top dose activity change, negative = inhibition, most hits filed as inhibitors. recombinant TDP1, AlphaScreen DNA substrate cleavage. 350,000 compounds, 0.28% hits; further: potency means the concentration at half of the fitted maximal effect; on the % scale 0 is the no-effect control and ±100 the full control effect; nearly all actives have a fitted effect of over 40% in size
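Recombinant E. coli-expressed Tdp1 (1 nM) preincubated with compound 15 min at RT, then 5'-biotin/3'-phosphotyrosine-FITC DNA substrate (15 nM) added for 5 min. AlphaScreen beads (10 ug/ml) added, 10 min RT; tyrosine-FITC cleavage read as signal loss.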
miR-21 reporter: raises the signal of a miR-21 reporter | HeLa miR-21 FLuc reporter, luciferase, 48 h | Potency, µM (highest dose often 38.3 µM), inactives show at the highest dose reporter change, positive = more light | 340,000 tested, under 10 active | AID 2288; active = well fitted rising curve with a large enough effect; inconclusive = small, poorly fitted or top-dose-only effect; inactive = no such curve, though single readings can be large or run the other way;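 note: % of control where 0% means no effect; miR-21 action dims this reporter so a rising signal means less miR-21 action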
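HeLa miR-21-FLuc reporter line, endogenous miR-21; 2000 cells/well in DMEM/10% FBS; compound titration up to ~40uM final, 48 h, 37 degree Celsius; luciferase detection reagent, 15 min lysis, CCD luminescence.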
TDP1 cell noCPT: qHTS for Inhibitors of human tyrosyl-DNA phosphodiesterase 1 (TDP1): qHTS in cells in absence of CPT | DT40 Tdp1-/- hTDP1 cells, no CPT, ATP luminescence, 48 h | Potency, µM (series often up to 46.2 µM), inactives show top-dose activity change, negative = growth inhibition, usual class: inhibitors | 420,000 compounds, 15% hits | AID 686978, 2013; further: potency means the concentration at half of the fitted maximal effect; on the % scale 0 is the no-effect control and ±100 the full control effect; nearly all actives have a fitted effect of over 55% in size
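DT40 Tdp1-/-;hTDP1 cells, no CPT (DMSO vehicle only), 400 cells/well; compounds pin-transferred; ≥48 hr, 37 °C; CellTiter-Glo 30 min RT dark, luminescence read.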
* marks the source's active call; other numbers are inactive results; ? = inconclusive; · = not tested or not shown; [ ] = another dose, or the depositor's remark. The list is not random: actives were taken first. Their share in the collection is about 16%. Unless noted, the call rests on the fitted dose curve; in most records, active means well fitted curve in the direction sought with a large enough effect; inconclusive means small, poorly fitted or top-dose-only effect, or another doubt; inactive means no such curve, though single readings can be large; an effect the other way counts as inactive or inconclusive.

[1] CC[C@@H](C(=O)[C@@H](C)[C@@H](O)[C@H](C)CCc1ccc(C)c(O)c1C(=O)O)[C@H]1O[C@](CC)([C@H]2CC[C@](O)(CC)[C@H](C)O2)C[C@@H]1C
[2] CN(C)CCN(Cc1ccccc1)S(=O)(=O)c1ccc2[nH]c(=O)ccc2c1
[3] c1cnc2nc3c4ccccc4c4ccccc4c3nc2c1
[4] CCc1ccccc1NC(=O)Nc1ccon1
[5] CO[C@@H]1COC(=O)CCC[C@@H](C)[C@H](OC)COC(=O)CCC[C@H]1C
[6] C[C@@H]1CCCCCCCCC(=O)OCCN[C@H](C)CCCCCCCCC(=O)OCCN[C@H](C)CCCCCCCCC(=O)OCCN1
[7] O=C(Cn1cccc1C(=O)c1ccccc1)NCCc1ccc(Cl)cc1
[8] COc1ccc(CCNC(=O)C(=O)NCC2CCCO2)cc1 (stereo unspecified)

| assay / compound | 1 | 2 | 3 | 4 | 5 | 6 | 7 | 8 |
| --- | --- | --- | --- | --- | --- | --- | --- | --- |
| uPA surface inh | 2.3% | · | -14.1% | -12.6% | · | -4.5% | 3.1% | -2.8% |
| TDP1 cell CPT | 2.59µM* | -7.0% | ? | -2.4% | · | 13µM* | ? | -6.0% |
| TDP1 inh | · | 4.4% | · | 5.4%[56.1 µM] | 4.8%[21 µM] | 4.1% | 1.8% | 1.3%[56.1 µM] |
| miR-21 reporter | 23.9% | -10.3% | · | -0.5% | · | · | -0.6% | -2.7% |
| TDP1 cell noCPT | 2.31µM* | 0.9% | 14.6µM* | 2.1% | · | 20.6µM* | 4.7% | -23.3% |

Single records (already shown).
Entry for CO[C@@H]1COC(=O)CCC[C@@H](C)[C@H](OC)COC(=O)CCC[C@H]1C → uPA surface inh = ·; TDP1 cell CPT = ·; TDP1 inh = 4.8%[21 µM]; miR-21 reporter = ·; TDP1 cell noCPT = ·
Entry for CN(C)CCN(Cc1ccccc1)S(=O)(=O)c1ccc2[nH]c(=O)ccc2c1 → uPA surface inh = ·; TDP1 cell CPT = -7.0%; TDP1 inh = 4.4%; miR-21 reporter = -10.3%; TDP1 cell noCPT = 0.9%

Later entries:
[9] CCOc1ccc(/C=C/c2ccc3ccccc3n2)cc1OCC
[10] COc1cc(C=Cc2nnc3c4ccccc4cnn23)cc(OC)c1OC
[11] COc1cc(C=C2C(=O)c3ccccc3C2=O)cc(OC)c1OC
[12] COc1cc(/C=C/c2ccc3ccccc3n2)cc(OC)c1OC
[13] COc1cc(/C=C/c2nc3ccccc3nc2/C=C/c2cc(OC)c(OC)c(OC)c2)cc(OC)c1OC
[14] CCOc1cc(/C=C/C(=O)O)ccc1OCc1ccccc1
[15] COc1cc(/C=C/c2cc(C(F)(F)F)[nH]c(=O)n2)cc(OC)c1OC
[16] NC1=NC(=O)C2(COC(c3ccncc3)OC2)S1 (stereo unspecified)

| assay / compound | 9 | 10 | 11 | 12 | 13 | 14 | 15 | 16 |
| --- | --- | --- | --- | --- | --- | --- | --- | --- |
| uPA surface inh | · | · | 4.5% | · | · | -0.6% | 8.6% | 5.1% |
| TDP1 cell CPT | 2.82µM* | 3.26µM* | ? | 0.159µM* | 1.26µM* | -5.7% | ? | 9.2% |
| TDP1 inh | · | · | -2.5% | · | · | 1.2% | -2.5% | 5.1% |
| miR-21 reporter | · | · | -38.1% | · | · | 0.7% | 10.9% | 0.1% |
| TDP1 cell noCPT | 2.51µM* | 0.82µM* | -4.8% | 0.0708µM* | 4.47µM* | 5.6% | ? | -2.0% |

[17] Cc1cccnc1NC(=O)CNC(=O)C1CCCCC1
[18] CCC1C(=O)NCCN1C(=O)CCc1nnc(CCc2ccc(OC)cc2)o1 (stereo unspecified)
[19] COc1cc(NC(=S)N2CCN(S(C)(=O)=O)CC2)cc(OC)c1
[20] CCCc1nc2oc3c(OC)ncnc3c2c2c1COC(C)(C)C2
[21] CC(C)c1nc2oc3c(NCCO)ncnc3c2c2c1COC(C)(C)C2
[22] CC(C)c1nc2oc3c(NCC4CCCO4)ncnc3c2c2c1COC(C)(C)C2 (stereo unspecified)
[23] CCCc1nc2oc3c(NCCOCCO)ncnc3c2c2c1COC(C)(C)C2
[24] Cc1nc2oc3c(NCC4CCCO4)ncnc3c2c2c1COC(C)(C)C2 (stereo unspecified)

| assay / compound | 17 | 18 | 19 | 20 | 21 | 22 | 23 | 24 |
| --- | --- | --- | --- | --- | --- | --- | --- | --- |
| uPA surface inh | 13.3% | -0.1% | 2.7% | -6.2% | 1.5% | -0.6% | -6.2% | -3.4% |
| TDP1 cell CPT | -6.2% | 3.2% | -7.5% | ? | -28.6% | ? | -16.2% | -0.3% |
| TDP1 inh | 1.2% | 5.2% | 2.0% | 4.6% | · | 4.7% | 3.2% | 0.0% |
| miR-21 reporter | · | -8.8% | -2.0% | 0.4% | 3.4% | -8.6% | -3.3% | -2.3% |
| TDP1 cell noCPT | 11.5% | -4.7% | 28.8% | 20.6µM* | ? | 14.6µM* | ? | -1.5% |

Remaining list, next part.
Results follow in this order: uPA surface inh, TDP1 cell CPT, TDP1 inh, miR-21 reporter, TDP1 cell noCPT
25) Cc1nc2oc3c(NCc4ccccc4)ncnc3c2c2c1COC(C)(C)C2
 : 1.9%, ?, 3.6%, -7.2%, 18.4µM*
26) Nc1ccccc1-c1nnc(SCc2ccccc2F)[nH]c1=O
 : 6.1%, -5.5%, 2.1%, -3.7%, ?
27) CC1CN(S(=O)(=O)c2ccc3c(c2)NC(=O)CC(=O)N3)c2ccccc2O1 (stereo unspecified)
 : ·, -28.5%, 2.8%, 0.1%, ?
28) Cc1cccc(C(=O)C2CCN(S(=O)(=O)c3ccc(C(=O)O)cc3)CC2)c1
 : -2.5%, 8.9%, ·, 4.1%, -1.0%
29) Fc1ccc2nc(Nc3nc4c(F)cccc4s3)sc2c1
 : 5.3%, ?, 9.1%, -23.9%, ?
